Results taken from patent US12329747B2, “Use of lipophilic beta-lactam antibiotics and carboxylate esters for the treatment of bacterial infections within citrus and other plant species” (priority 2019, dated 2025).

Experiments:
[1] = Dissolution in neem oil (horticultural oil); settings: 1:1 mixture with horticultural oil
[2] = Measured log Kow of product compounds; settings: values themselves only shown in FIG. 2B to 2F

## COC(=O)[C@@H]1N2C(=O)[C@@H](NC(=O)COc3ccccc3)[C@H]2SC1(C)C [product compound 2, Methyl(2S,5R,6R)-3,3-dimethyl-7-oxo-6-(2-phenoxyacetamido)-4-thia-1-azabicyclo[3.2.0]heptane-2-carboxylate]
[1]
  dissolution in neem oil: formed more of an emulsion than a solution

## CCCCCCCCCC(=O)OCOC(=O)[C@@H]1N2C(=O)[C@@H](NC(=O)Cc3ccccc3)[C@H]2SC1(C)C [product compound 5, (Decanoyloxy)methyl (2S,5R,6R)-3,3-dimethyl-7-oxo-6-(2-phenylacetamido)-4-thia-1-azabicyclo[3.2.0]heptane-2-carboxylate]
[2]
  log Kow: close to that of the PRIOR ART Spinosyn A

## COC(=O)[C@@H]1N2C(=O)[C@@H](NC(=O)Cc3ccccc3)[C@H]2SC1(C)C [product compound 1, Methyl(2S,5R,6R)-3,3-dimethyl-7-oxo-6-(2-phenylacetamido)-4-thia-1-azabicyclo[3.2.0]heptane-2-carboxylate]
[1]
  dissolution in neem oil: formed more of an emulsion than a solution

## CCCCCCCCCC(=O)OCOC(=O)[C@@H]1N2C(=O)[C@@H](NC(=O)COc3ccccc3)[C@H]2SC1(C)C [product compound 6, (Decanoyloxy)methyl(2S,5R,6R)-3,3-dimethyl-7-oxo-6-(2-phenoxyacetamido)-4-thia-1-azabicyclo[3.2.0]heptane-2-carboxylate]
[2]
  log Kow: close to that of the PRIOR ART Spinosyn A
